By Kd is commonly meant the equilibrium constant for the complex coming apart. A lower Kd goes with higher affinity.

The values below come from paper PMC4306385.

What all share (assay): co-sedimentation
Assay [1] deals with A331P variant of cardiac actin (ACTC), filaments.
Assay [2] deals with M305L variant of cardiac actin (ACTC), filaments.
For assay [3], the target named is E99K variant of cardiac actin (ACTC), filaments.
The target in assay [4] is A230V variant of cardiac actin (ACTC), filaments.
For assay [5], the target named is E361G variant of cardiac actin (ACTC), filaments.
Assay [6] deals with Y166C variant of cardiac actin (ACTC), filaments.
Assay [7] concerns the target R312H variant of cardiac actin (ACTC), filaments.

For “N-terminal C0C2 fragment of cardiac myosin binding protein-C (cMyBP-C) (from UniProt O70468 1-448) (domain or fragment)”, the equilibrium dissociation constant (Kd) was found to be 13.4 µM in assay [1]; 3.57 µM in assay [2]; 6.73 µM in assay [3]; 7.24 µM in assay [4]; 9.17 µM in assay [5]; 11.9 µM in assay [6]. The substance further had a Kd in assay [7] of 4.51 µM. Also, the stoichiometry N (mol/mol actin) is 0.91 in assay [1]; 0.68 in assay [2]; 1.08 in assay [3]; 0.81 in assay [4]; 0.99 in assay [5]; 0.73 in assay [6]. Further, the stoichiometry N (mol/mol actin) in assay [7] came to 0.93.
